Results as given in PubChem BioAssay AID485341 (National Center for Advancing Translational Sciences (NCATS), 2010).
The entries are a selection whose mix differs from that of the whole data set. Some results for these compounds are left out of this collection, so the calls shown say nothing about other tests. Active and inactive are the calls of the source. The call rests on the fitted dose curve; in most records, active means well fitted inhibition curve with a large enough effect; inconclusive means small, poorly fitted or top-dose-only effect; inactive means no such curve, though single readings can be large or run the other way.

Sequences of proteins named here, by UniProt entry; tags and fusion partners are left off.
UniProt P00811, whole entry: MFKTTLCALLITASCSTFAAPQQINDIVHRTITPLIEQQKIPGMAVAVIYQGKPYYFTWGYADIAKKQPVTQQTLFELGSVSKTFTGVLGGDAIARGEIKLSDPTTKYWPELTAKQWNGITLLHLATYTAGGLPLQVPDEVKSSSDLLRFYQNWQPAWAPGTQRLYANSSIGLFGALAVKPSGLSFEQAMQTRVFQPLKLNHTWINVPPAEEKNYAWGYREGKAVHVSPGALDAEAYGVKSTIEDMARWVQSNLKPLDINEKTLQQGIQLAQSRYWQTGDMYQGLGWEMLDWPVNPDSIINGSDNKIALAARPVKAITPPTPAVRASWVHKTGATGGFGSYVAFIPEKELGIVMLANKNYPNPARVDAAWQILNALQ

Each molecule was assayed against Beta-lactamase (Escherichia coli (strain K12)) (UniProt P00811) (assay: qHTS Inhibitors of AmpC Beta-Lactamase (assay without detergent)). Details: AmpC nitrocefin hydrolysis, absorbance 480 nm, 0.0001% Triton; at 57.1 µM (top of the series).
Method: NIH Molecular Libraries Probe Production Network [MLPCN] NIH Chemical Genomics Center [NCGC] Assay Provider: Professor Brian Shoichet, UCSF Assay Overview: This aggregation profiling approach exploits the sensitivity of aggregate formation to detergent. Inhibition of b-lactamase is measured in the presence and absence of 0.01% Triton X-100. This particular assay had the prescence of 0.01% Triton X-100. See Pubchem assay "Promiscuous and Specific Inhibitors of AmpC Beta-Lactamase (assay without detergent)" for related screen. Compounds that inhibit only in the absence of detergent are considered likely promiscuous aggregators. A screen of 1,030 compounds was performed in Brian Shoichet's lab in 96-well format. AmpC activity was measured by following the absorbance at 480 nm. Nitrocefin is a chromogenic substrate: while nitrocefin is yellow (lmax 390 nm), the product of its hydrolysis is red (lmax 486 nm, 17,000 M-1). AmpC beta lactamase was provided by Shoichet Lab, UCSF.
Buffer: 20 mM phosphate buffer, pH 7.0 Triton X-100: No Detergent screen: 0.0001%, Detergent screen: 0.01%. Reagents/Controls: Buffer in columns 3 and 4 as negative control (no enzyme). 5.3 nM AmpC in columns 1, 2, 5-48. Titration of UCSF compound 9 control (from 10 mM, then 1:2) pin-transferred to column 2. Column 1 is neutral (100% activity). Assay Steps: Six uL of reagents were dispensed to 1536-well Greiner black clear bottom plates. Compounds and controls (23 nL) were transferred via Kalypsys PinTool. The plates were incubated for 15 min at room temperature, and then 2 uL of 800 uM solution of nitrocefin was added to start the reaction. The plates were immediately transferred to and read every 20 seconds for 4 min on ViewLux (Perkin-Elmer) High-throughput CCD imager using 480 nm absorbance protocol. During dispense, reagent bottles were kept submerged into 4 deg C water bath. Keywords: NIH Roadmap, MLSCN, MLI, MLSMR, qHTS, NCGC, AmpC Beta-Lactamase, Aggregation
Further: nearly all actives have a fitted effect of over 20% in size.

Compound	activity change, negative = inhibition
CC(C)N1C(=O)CC2(CCN(CCOC(=O)C(O)(c3ccccc3)c3ccccc3)CC2)C1=O	inactive: 80.9%
CCN(CC)CC(C)C(C)OC(=O)C(O)(c1ccccc1)c1ccccc1 (centres undefined)	inactive: 4.44%
COc1cc(SC)ccc1C(=O)NCC1(N(C)C)CCCCC1	inactive: -4.39%
Cc1ccc(C(=O)NCC2(N3CCCCC3)CCCCC2)cc1	inactive: -20.4%
O=C(NCC1(N2CCCCC2)CCCCC1)c1cc([N+](=O)[O-])ccc1Cl	inactive: -38.5%
CN1[C@@H]2CC[C@H]1CC(OC(=O)C(O)(c1ccccc1)c1ccccc1)C2 (some centres undefined)	inactive: 2.01%
C=CCN1CCN(CCOC(=O)C(O)(c2ccccc2)c2ccccc2)CC1	inactive: 2.18%
O=C(NCC1(N2CCCCC2)CCCCC1)c1cc(F)c(F)cc1Cl	inactive: -11.3%
Cc1cc(C(=O)NCC2(N3CCCCC3)CCCCC2)ccc1[N+](=O)[O-]	inactive: -11.6%
CCN1CCCC(OC(=O)C2(O)c3ccccc3C=Cc3ccccc32)C1 (centres undefined)	inactive: -14.4%
O=C(NCC1(N2CCCCC2)CCCCC1)c1cccc(Br)c1	inactive: -24.7%
COc1ccc(C(=O)NCC2(N(C)C)CCCCC2)cc1	inactive: 20.4%
Cc1ccccc1C(=O)NCC1(N2CCCCC2)CCCCC1	inactive: -12.9%
CN(C)C1CCCC1OC(=O)C(O)(c1ccccc1)c1ccccc1 (centres undefined)	inactive: -3.55%
CN(C)c1ccc(C(=O)NCC2(N(C)C)CCCCC2)cc1	inactive: -11.2%
COc1cccc(C(=O)NCC2(N3CCCCC3)CCCCC2)c1	inactive: -12.6%
COc1ccc(Cl)cc1C(=O)NCC1(N(C)C)CCCCC1	inactive: 0.202%
O=C(NCC1(N2CCCCC2)CCCCC1)c1cccc(Cl)c1	inactive: -15.8%
CN(C)C1(CNC(=O)c2ccc(Br)cc2)CCCCC1	inactive: -14.8%
COc1cc(C(=O)NCC2(N(C)C)CCCCC2)c([N+](=O)[O-])cc1OC	inactive: -7.44%
COc1ccc(Br)c(C(=O)NCC2(N3CCCCC3)CCCCC2)c1	inactive: 58.5%
CN(C)c1cccc(C(=O)NCC2(N(C)C)CCCCC2)c1	inactive: -7.25%
CC(C)Oc1ccc(C(=O)NCC2(N(C)C)CCCCC2)cc1	inactive: -1.34%
O=C(OC1CN2CCC1CC2)C(CO)(c1ccccc1)c1ccccc1 (centres undefined)	inactive: -23.1%
